Test results: ChEMBL document CHEMBL5729254, “Heterocyclic compound as JAK inhibitor, and salts and therapeutic use thereof” (2022)

The chains behind the UniProt entries cited, without tags or fusion partners. Where a name states a change or a piece, a line headed by the entry shows the natural chain unless it says otherwise.
UniProt O60674: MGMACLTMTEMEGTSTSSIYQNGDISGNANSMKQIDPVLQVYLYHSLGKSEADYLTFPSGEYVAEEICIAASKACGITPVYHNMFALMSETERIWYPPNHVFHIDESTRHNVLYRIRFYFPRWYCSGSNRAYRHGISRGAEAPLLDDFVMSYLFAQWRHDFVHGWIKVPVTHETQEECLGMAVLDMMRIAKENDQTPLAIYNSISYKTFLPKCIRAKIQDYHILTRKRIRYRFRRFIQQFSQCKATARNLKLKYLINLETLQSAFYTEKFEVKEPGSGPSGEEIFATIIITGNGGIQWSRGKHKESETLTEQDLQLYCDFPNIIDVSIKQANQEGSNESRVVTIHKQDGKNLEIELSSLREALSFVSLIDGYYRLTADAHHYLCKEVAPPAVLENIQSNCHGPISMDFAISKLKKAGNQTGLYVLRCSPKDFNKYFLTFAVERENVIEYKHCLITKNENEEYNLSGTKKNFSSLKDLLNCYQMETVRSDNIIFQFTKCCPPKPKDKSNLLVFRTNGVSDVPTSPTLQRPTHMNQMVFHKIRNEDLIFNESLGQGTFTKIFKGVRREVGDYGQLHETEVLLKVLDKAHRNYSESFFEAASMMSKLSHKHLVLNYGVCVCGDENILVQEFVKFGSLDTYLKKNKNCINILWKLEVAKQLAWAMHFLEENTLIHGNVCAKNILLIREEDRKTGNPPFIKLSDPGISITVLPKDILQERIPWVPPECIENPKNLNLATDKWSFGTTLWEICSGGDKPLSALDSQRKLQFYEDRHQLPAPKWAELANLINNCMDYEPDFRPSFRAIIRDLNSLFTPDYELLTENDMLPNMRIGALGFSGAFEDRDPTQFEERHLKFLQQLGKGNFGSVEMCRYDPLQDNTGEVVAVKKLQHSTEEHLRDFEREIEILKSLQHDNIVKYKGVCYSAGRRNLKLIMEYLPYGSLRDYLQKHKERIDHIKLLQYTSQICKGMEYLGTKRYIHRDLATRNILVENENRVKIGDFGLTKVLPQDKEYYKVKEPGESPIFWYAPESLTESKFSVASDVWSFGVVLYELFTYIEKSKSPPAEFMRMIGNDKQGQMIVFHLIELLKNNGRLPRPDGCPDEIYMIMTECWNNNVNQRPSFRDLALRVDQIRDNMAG

Biological target: Tyrosine-protein kinase JAK2 (Homo sapiens, UniProt O60674)

Compound: CCS(=O)(=O)N1CC(CC#N)(n2cc(-c3ncnc4[nH]ccc34)cn2)C1 [BARICITINIB]
- IC50: 5.5 nM
